## Ab-14 heavy chain CDR variants: yeast mating affinities

Data: MIT Lincoln Laboratory AlphaSeq set, Li et al. 2023, doi:10.1038/s41467-023-39022-2, as distributed in FLAb.

Binding partner: SARS-CoV-2 spike HR2 peptide, sequence PDVDLGDISGINAS.

Each scFv is VH, three GGGGS repeats, VL, as in the parent Ab-14, and differs from it in the CDRs of the heavy chain only.
VH: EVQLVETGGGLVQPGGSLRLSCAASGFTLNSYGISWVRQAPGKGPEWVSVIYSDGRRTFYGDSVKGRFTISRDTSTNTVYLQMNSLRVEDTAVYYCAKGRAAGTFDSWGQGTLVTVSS
VL: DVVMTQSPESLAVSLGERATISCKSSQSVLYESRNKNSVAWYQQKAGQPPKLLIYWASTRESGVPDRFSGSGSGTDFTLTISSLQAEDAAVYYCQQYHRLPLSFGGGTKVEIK

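This is the validation round: designs drawn from the data on random variants, tested in the same kind of assay. Group labels follow the data file (Ctrl: baseline library sampled from a position-specific scoring matrix, with some repeated check sequences; GP: Gaussian process model; Gibbs: Gibbs sampling; a sequence that several methods proposed may carry one label only). The scFvs were displayed on barcoded MATa yeast, the peptide on MATalpha yeast. The frequency of each diploid, read from paired DNA barcodes, reflects how well the two displayed proteins bind. Scores were corrected for input abundance and mapped to Kd with protein pairs of known affinity run in the same pool. There are six technical replicates.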

The parent's heavy chain CDRs are GFTLNSYGIS, VIYSDGRRTFYGDSVK, GRAAGTFDS; each variant's own CDRs replace them letter for letter. Numbers give log10(Kd / nM), so 0 is 1 nM and 3 is 1 µM. Smaller is tighter. A pair that was not seen in that replicate is written "n.d."; this usually means weak binding, but a binder can also be missed. Of ten entries with the parent sequence, four were seen in most replicates (averages 0.34 to 2.37), three in one and three in none, so single entries are noisy. A sequence measured in both rounds can read differently, since the two assays cover different ranges. As a blank, each scFv also met three strains without target: over all heavy chain designs, 1% of these pairings were detected, typically at 2.08 and seldom below 0.84. Also given: how often the same scFv was detected with the empty control strains, with their mean in brackets. In the paper, a design with two or fewer of six values counts as a poor binder. Some sequences occur more than once in the pool; their replicates are listed entry by entry, parted by semicolons.

{"CDR-H1": "GFTLNSYGIS", "CDR-H2": "VIYSDGRRTFYGDSVK", "CDR-H3": "GGAAGTFDS", "group": "Ctrl", "log10 Kd (nM) by replicate": "n.d. 1.63 n.d. n.d. 1.52 n.d.", "control signals": "0/18"}
{"CDR-H1": "GFTLNEYGIS", "CDR-H2": "VIYSDGRRTFYKDSVK", "CDR-H3": "GGAAGTFDS", "group": "Ctrl", "log10 Kd (nM) by replicate": "1.13 0.39 0.59 0.44 0.41 0.98", "control signals": "1/18 (2.67)"}
{"CDR-H1": "GFTLNSYGIS", "CDR-H2": "VIYSDGRRTEYKDSVR", "CDR-H3": "GRAAGTFDS", "group": "Ctrl", "log10 Kd (nM) by replicate": "n.d. 1.71 n.d. n.d. n.d. 0.89", "control signals": "0/18"}
{"CDR-H1": "GFDLNSYGIS", "CDR-H2": "VIYSDGWRTFYEDSVK", "CDR-H3": "GRAGGTFDS", "group": "Ctrl", "log10 Kd (nM) by replicate": "n.d. n.d. 1.85 n.d. n.d. n.d.", "control signals": "0/18"}
{"CDR-H1": "GFTINSYGIS", "CDR-H2": "VIYSDGRRTFYGDSVK", "CDR-H3": "DRAAGTFWS", "group": "Ctrl", "log10 Kd (nM) by replicate": "n.d. n.d. n.d. n.d. n.d. n.d.", "control signals": "0/18"}
{"CDR-H1": "GFTLNSYGIS", "CDR-H2": "VIYSDGMRTFYGDSVK", "CDR-H3": "GRAAGHFDS", "group": "Ctrl", "log10 Kd (nM) by replicate": "n.d. n.d. n.d. n.d. n.d. n.d.", "control signals": "1/18 (2.35)"}
{"CDR-H1": "GFTINSYGIS", "CDR-H2": "VIYSDGRRTFYGDSVK", "CDR-H3": "GRSAGTFSS", "group": "Ctrl", "log10 Kd (nM) by replicate": "n.d. n.d. n.d. n.d. n.d. n.d.", "control signals": "0/18"}
{"CDR-H1": "TFTLDSYGIS", "CDR-H2": "VIYSDGRRTFYGDSVK", "CDR-H3": "GRAAGTFDS", "group": "Ctrl", "log10 Kd (nM) by replicate": "n.d. n.d. n.d. n.d. n.d. n.d.", "control signals": "0/18"}
{"CDR-H1": "GFTLNSYGIS", "CDR-H2": "VIYSDGERTFYGDSVK", "CDR-H3": "GRAKGTFDS", "group": "Ctrl", "log10 Kd (nM) by replicate": "n.d. n.d. n.d. n.d. n.d. n.d.", "control signals": "0/18"}
{"CDR-H1": "GFTLNSYGIS", "CDR-H2": "VIYSDGRRTYYGDDVK", "CDR-H3": "GRFAGTFDL", "group": "Ctrl", "log10 Kd (nM) by replicate": "n.d. 1.09 0.39 0.85 n.d. 1.23", "control signals": "0/18"}
{"CDR-H1": "GFTLNQYGIS", "CDR-H2": "VIYSDGRRTFYGDSVK", "CDR-H3": "GRIKGRFDS", "group": "Ctrl", "log10 Kd (nM) by replicate": "n.d. n.d. n.d. n.d. n.d. n.d.", "control signals": "0/18"}
{"CDR-H1": "GFTLNLYGIS", "CDR-H2": "VIYSDGYRTMYGDSVK", "CDR-H3": "GRAAVTFDS", "group": "Ctrl", "log10 Kd (nM) by replicate": "n.d. n.d. n.d. n.d. n.d. n.d.", "control signals": "0/18"}
{"CDR-H1": "GFTLNSYGIS", "CDR-H2": "VIYSDGRRKFYDDSVK", "CDR-H3": "GRLAGTFDS", "group": "Ctrl", "log10 Kd (nM) by replicate": "0.92 0.76 0.19 0.40 0.45 0.93", "control signals": "0/18"}
{"CDR-H1": "GFTLNSYGIS", "CDR-H2": "VIYSDGRRTFYKDSVK", "CDR-H3": "GKAAGTFDS", "group": "Ctrl+GP_Gibbs", "log10 Kd (nM) by replicate": "1.52 1.64 1.53 1.11 2.80 0.89; 1.96 1.29 1.72 1.80 1.30 1.45", "control signals": "1/36 (3.56)"}
{"CDR-H1": "GDTLNSYGIS", "CDR-H2": "VIYSDGMRTAYGDSVK", "CDR-H3": "GKRIGTFDS", "group": "Ctrl", "log10 Kd (nM) by replicate": "n.d. n.d. n.d. n.d. n.d. n.d.", "control signals": "0/18"}
{"CDR-H1": "GFTLNSYGIS", "CDR-H2": "VIYSDGRRTMYGDSVK", "CDR-H3": "GREAGTFDS", "group": "Ctrl", "log10 Kd (nM) by replicate": "n.d. 1.71 0.19 0.75 0.36 0.12", "control signals": "0/18"}
{"CDR-H1": "GFTLNSYGIS", "CDR-H2": "VIYSDGMRTFYGDSVK", "CDR-H3": "GRIQGTFKS", "group": "Ctrl", "log10 Kd (nM) by replicate": "n.d. n.d. n.d. n.d. n.d. n.d.", "control signals": "0/18"}
{"CDR-H1": "GFTLNEYGIS", "CDR-H2": "VIYSDGRRTFYGDSVK", "CDR-H3": "GRNAGTFDW", "group": "Ctrl", "log10 Kd (nM) by replicate": "n.d. n.d. 1.50 n.d. n.d. 1.66", "control signals": "0/18"}
{"CDR-H1": "GFTLNSYGIS", "CDR-H2": "VIYSDGRRTFYDDSTK", "CDR-H3": "GRAAGTFDL", "group": "Ctrl", "log10 Kd (nM) by replicate": "n.d. n.d. n.d. n.d. n.d. n.d.", "control signals": "0/18"}
{"CDR-H1": "GFTLNSYGIS", "CDR-H2": "VIYSDGRRTFYGDSVK", "CDR-H3": "GERAGTFDS", "group": "Ctrl", "log10 Kd (nM) by replicate": "1.52 2.97 3.05 1.68 2.47 1.83", "control signals": "0/18"}
{"CDR-H1": "GFWLASYGIS", "CDR-H2": "VIYSDGRRTFYLDSVK", "CDR-H3": "GFSAGTFDS", "group": "Ctrl", "log10 Kd (nM) by replicate": "n.d. n.d. n.d. 2.20 n.d. n.d.", "control signals": "0/18"}
{"CDR-H1": "GFTLQEYGIS", "CDR-H2": "VIYSDGRRTFYGDSVK", "CDR-H3": "GRAAGTFDS", "group": "Ctrl", "log10 Kd (nM) by replicate": "0.49 0.51 0.26 0.19 0.47 0.80", "control signals": "0/18"}
{"CDR-H1": "GFTLNSYGIS", "CDR-H2": "VIYSDGRRFFYGDSVK", "CDR-H3": "GRAAGTFDS", "group": "Ctrl", "log10 Kd (nM) by replicate": "n.d. n.d. n.d. n.d. n.d. n.d.", "control signals": "1/18 (2.37)"}
{"CDR-H1": "GFTLNQYGIS", "CDR-H2": "VIYSDSRRCFYGDSVK", "CDR-H3": "GRAMDTKDS", "group": "Ctrl", "log10 Kd (nM) by replicate": "n.d. n.d. n.d. n.d. n.d. n.d.", "control signals": "0/18"}
{"CDR-H1": "GFCLNSYGIS", "CDR-H2": "VIYRDGRRTFYSDSVK", "CDR-H3": "GRAAGTFRS", "group": "Ctrl", "log10 Kd (nM) by replicate": "1.33 n.d. n.d. n.d. n.d. n.d.", "control signals": "0/18"}
{"CDR-H1": "GYTLNSYGVS", "CDR-H2": "VIYSDGRRTFYGDSVA", "CDR-H3": "GYHAGTMDS", "group": "Ctrl", "log10 Kd (nM) by replicate": "n.d. n.d. n.d. n.d. n.d. n.d.", "control signals": "0/18"}